# Earlier results, collected in PubChem BioAssay AID1811 (Shanghai Institute of Organic Chemistry, 2009).
# The list shows a part of the results. Active and inactive are the calls of the source. Unless stated, no cut-off for active and inactive is given here.
# System: coagulation factor xa
# Test: PubChem AID 1811
# Settings: PDB complex binding affinities from literature
smiles,measurement,value
CC(C)N1CCC(NC(=O)c2cc3ccccc3n2Cc2cc(-c3ccc(Cl)s3)on2)CC1,outcome,active
